Where “and” joins values, the source holds several entries; their conditions need not be identical. Equal values may be shown once.
Columns and labels:
[1] = system: mononuclear phagocyte; assay: Phagocytotic function of mononuclear phagocyte in mice with transplanted S180 sarcoma; assay type: in vivo, BALB/c mice; details: controls: IL-2, IFN-γ 3 × 10^5 IU/kg, cyclophosphamide 20 mg/kg, saline 5.38 ± 0.85
Description: Intraperitoneal injection, once per day. […] Treatment of all groups with testing substance lasted for 30 days or until the animal died unless otherwise specified.
Stock S180 sarcoma cells were incubated in DMEM/F12 medium supplemented with 10% fetal bovine serum, 37° C., 5% CO2 for 72 hrs, then washed 3-4 times with Hank's solution at room temperature. Adjust the cell concentration to 1-2×10^9 per litre with Hank's solution. […] The mice were killed by cervical vertebra dislocation. Vigorously growing and non-disrupted tumor masses were harvested and washed clean with sterile saline. The tissue was dispersed in saline to a homogenous cell suspension, in a ratio of 1 g tissue to 4 ml saline. The sarcoma bearing mice model was prepared with an injection of 0.2 ml cell suspension through the armpit. […]
2.1 The effect of peptides on the phagocytotic function of mononuclear phagocyte in mice with S180 sarcoma was analysed by injecting mice from the tail vein with 0.1 ml/10 g body weight of Indian ink (1:5 dilution with normal saline) on the second day after the last test substance administration. […] The outline clear index K was calculated by the following formula: K=(lgA1−lgA2)÷(t2−t1)
After the phagocytosis index study, the mice were killed by cervical vertebra dislocation. […] The phagocytosis index a was calculated as below: α=(^3√{square root over ( )}K)×(W÷WLS)

[2] = system: interferon (IFN); design: species or system BALB/c mice; details: mouse, in vivo, ip
[3] = system: L1210 leukemia; assay: Survival of mice with transplanted L1210 leukemia; assay type: in vivo, DBA/2 mice; details: cyclophosphamide 20 mg/kg
Description: Intraperitoneal injection, once per day. […] The cyclophosphamide groups were treated on the next day after transplanting the cancer cells. Treatment of all groups with testing substance lasted for 30 days or until the animal died unless otherwise specified.
Stock L1210 cells were incubated in DMEM/F12 medium supplemented with 10% fetal bovine serum, 37° C./5% CO2 for 72 hrs, then washed 3-4 times with Hank's solution, and adjusted to […]. 0.1 ml of the cell suspension was implanted into the abdominal cavity of several healthy DBA mice for 6-8 days. The mice were then killed by cervical vertebra dislocation and their ascitic fluid collected aseptically. The cell concentration of the collected ascitic fluid was adjusted to 1×10^5 per ml with Hank's solution. 0.1 ml of the cell suspension was implanted into each of the testing animal and the survival data of the animals recorded. Treatment started in the testing animals as described in section Method 1. Mean survival day was obtained by the Kaplan-meier method in the Survival option of the SPSS software. If the animal survived longer than the experiment, the survival days was entered as the duration of the experiment. The survival index was calculated according to the following formula: Survival index=(mean survival days of treatment group−mean survival days of control group)÷mean survival days of control group 6. […]

[4] = system: NK cell; assay: NK cell activity in mice with ascitic fluid type liver cancer H22; assay type: in vivo, BALB/c mice; details: controls: IL-2, IFN-γ 3 × 10^5 IU/kg, cyclophosphamide 20 mg/kg, saline 24.0 ± 8.2
Description: Healthy BALB/c mice were randomised into peptide group, rmIFN-γ group, rhIL-2 group, and saline group, 15 mice per group, and prepared into H22 carrying mice model as described in section Method 3. After implantation of the cancer cells, the test substances were administered for 15 days, the mice were killed by cervical dislocation. The spleen was isolated aseptically and manually dispersed in cold D-Hank's solution using an injection needle. The dispersed cell suspension was further sieved through a 100-gauge 150 μm diameter stainless steel sieve. After centrifugation at 200 g for 10 minutes, the supernatant was discarded. The cell pellet was re-suspended in 10 volume of Tris-NH4Cl buffer and then kept standing still for 10 minutes at room temperature. The suspended cells were collected by centrifugation at 150 g for 10 minutes. The cells were washed 2-4 times with cold D-Hank's solution by re-suspending and collecting by centrifugation with condition as described above. The washed cells were then diluted to the desired cell densities by RPMI-1640 culture medium, containing 10% fetal bovine serum.
Mice spleen cells were prepared to 4×10^6/ml as described in section 4.1 above. […]
Samples were centrifuged at 150 g for 10 minutes to collect the cells. […] An ELISA reader was used to obtain OD570 nm of each well referenced at 630 nm. […]

IL-2: recombinant human IL (rhIL)-2, Shanghai Huaxin Biotech Inc.; positive control
Phagocytosis index [1]: 6.96 ± 1.37
activity of T lymphocyte in secreting IFN, X ± SD (IU) [2]: 120 ± 13 IU and 113 ± 17 IU and 105 ± 14 IU and 107 ± 13 IU
Survival index (%) ([3]; controls: IL-2 3 × 10^5 IU/kg): 92.3%
Survival days ([3]; controls: IL-2, IFN-γ 3 × 10^5 IU/kg, saline 16.6 ± 5.6): 32.0 ± 13.7 days
NK activity index (%) [4]: 26.0 ± 9.0%

— patent US20060167229A1, “Biologically active peptide conjugates” (priority 2002, published 2006)
